Tested on: BCAP37 breast cancer xenograft
Experiment: BCAP37 breast cancer xenograft model
Type: in vivo
Details: NOD-SCID mice, 1.25, 5 and 20 mg/kg SNGmB1, 3 mg/kg Herceptin, 17 days
Protocol: The ability of anti-ER-α36 antibody in inhibiting human tumor cell growth in Xenograft model was assessed using BCAP37 breast cancer model. […] The cells were implanted into NOD-SCID mice. When the tumor grown to 80-120 mm3 size, the mice were randomized into groups of 10 mice and been treated either with mouse IgG2b or SNGmB1 antibody or Herceptin, at a does of 1.25, 5 and 20 mg/kg for SNGmB1, or 3 mg/kg for Herceptin. After 17 days of treatment, the tumors were excised, and both tumor weight and volume were measured.

For “Herceptin: anti-HER2 antibody [reference compound]”, the “inhibition of tumor growth” value was “inhibit tumor growth”.

— US10233249B2, “Antibodies and methods for treating estrogen receptor-associated diseases” (BEIJING SHENOGEN PHARMA GROUP LTD., priority 2013, dated 2019)
